# Curated experimental data: vapor pressure values

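OPERA's authors assembled the values from existing databases and did not measure them anew. A listed value is a point estimate from one report or more. How each value was measured is not recorded, so precision varies. Where a salt, mixture or single isomer is drawn, the source does not say that exactly this form was tested. Some upstream entries may be estimates or bounds without being marked so.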

Vapor pressures (log10 mmHg) refer to near room temperature, 15 to 30 °C; higher is more volatile.
"–" marks a cell with nothing listed here.
"via" names the databases from which the curators took the value.

SMILES	name	vapor pressure (log10 mmHg)	via
CC(C)(O)CCCC1=CCC(C=O)CC1 (stereo not drawn)	4-(4-Hydroxy-4-methylpentyl)cyclohex-3-ene-1-carbaldehyde	-4.067	OCHEM
CCCC1CC(C)(OC(C)=O)CCO1 (stereo not drawn)	2H-Pyran-4-ol, tetrahydro-4-methyl-2-propyl-, 4-acetate	-0.493	OCHEM, eChemPortal
CC(C)=CCC[C@](C)(O)[C@@H]1CC=C(C)CC1	Levomenol	-3.806	eChemPortal
CCCCCCCCCCC=O	Undecanal	-0.444	eChemPortal
CC(C)C(=O)c1ccccc1	Isopropyl phenyl ketone	-1.058	eChemPortal
O=S(=O)(N(CCO)CCO)C(F)(F)C(F)(F)C(F)(F)C(F)(F)F	N,N-Bis(2-hydroxyethyl)perfluorobutanesulfonamide	-3.66	eChemPortal
N#CC(=C1CCCCC1)c1ccccc1	2-cyclohexylidene-2-phenylacetonitrile	-3.491	eChemPortal
CC(C)CNC[C@@H](O)[C@H](Cc1ccccc1)NC(=O)OC(C)(C)C	–	-7.02	eChemPortal
NCCCNCCN	N-(2-Aminoethyl)-1,3-propanediamine	-1.458	eChemPortal
CC(C)(C)c1n[nH]c(=O)[nH]c1=O	Metribuzin-DADK	-7.775	OCHEM
CCCCC(CC)COC(=O)CC(O)C(=O)OCC(CC)CCCC (stereo not drawn)	Bis(2-ethylhexyl) 2-hydroxybutanedioate	-6.124	eChemPortal
CCCCC(CC)COC(=O)CCS (stereo not drawn)	Propanoic acid, 3-mercapto-, 2-ethylhexyl ester	-1.17	eChemPortal
COc1ccc(C(OC[C@H]2O[C@@H](n3cc(C)c(=O)[nH]c3=O)C[C@@H]2O)(c2ccccc2)c2ccc(OC)cc2)cc1	Thymidine, 5'-O-[bis(4-methoxyphenyl)phenylmethyl]-	-9.319	eChemPortal
Clc1cc(Cl)c(Cl)c(-c2ccc(Cl)c(Cl)c2Cl)c1	2,2',3,3',4,5'-Hexachlorobiphenyl	-5.504	OCHEM
C=CCCCCCCCCC(=O)N[C@@H](Cc1ccccc1)C(=O)O	Undecylenoyl phenylalanine	-8.355	eChemPortal
COc1cc(OC)nc(Oc2cccc(Oc3nc(OC)cc(OC)n3)c2C(=O)ON=C(c2ccccc2)c2ccccc2)n1	Pyribenzoxim	-5.129	OCHEM
CCCCCCCCN(CCO)CCO	N,N-Bis(2-hydroxyethyl)octylamine	-4.114	eChemPortal
O=C1COCCN1c1ccccc1	4-phenylmorpholin-3-one	-4.961	eChemPortal
CNC(=O)c1cc(Oc2ccc(N)c(F)c2)ccn1	4-(4-Amino-3-fluorophenoxy)-N-methylpyridine-2-carboxamide	-5.59	eChemPortal
CC1(C)c2ccccc2-c2ccc(Nc3ccccc3-c3ccccc3)cc21	N-([1,1'-Biphenyl]-2-yl)-9,9-dimethyl-9H-fluoren-2-amine	-8.25	eChemPortal
CC(C)=CCO	3-Methyl-2-buten-1-ol	0.196	PubChem, eChemPortal
C[Si](C)(C)CCl	Silane, (chloromethyl)trimethyl-	1.578	eChemPortal
C=CC(=O)NCOCCCC	N-(Butoxymethyl)acrylamide	-2.686	eChemPortal
CC(CC=O)CCCC(C)(C)O (stereo not drawn)	Hydroxycitronellal	-2.312	OCHEM, eChemPortal
COC(=O)NC[Si](C)(OC)OC	Methyl (dimethoxy(methyl)silyl)methylcarbamate	-2.215	eChemPortal
C1CCCCCC2=C(CCCC1)CCCO2	–	-3.308	eChemPortal
CC1CC(C)(c2ccccc2)CO1 (stereo not drawn)	Rhubafuran	-1.727	eChemPortal
Cc1cc(C2CCCCC2)n(O)c(=O)c1.NCCO	Ciclopirox olamine	-5.979	eChemPortal
CC(CCO)CC1=CCCCC1 (stereo not drawn)	1-Cyclohexene-1-butanol, .gamma.-methyl-	-2.77	eChemPortal
CCCCCCOC1O[C@H](CO)[C@@H](O)[C@H](O)[C@H]1O (stereo partly drawn)	D-Glucopyranoside, hexyl	-4.958	eChemPortal
O=C(c1ccccc1)c1ccc(O)cc1	4-Hydroxybenzophenone	-6.618	eChemPortal
Clc1ccc(-c2c(Cl)c(Cl)cc(Cl)c2Cl)c(Cl)c1	2,2',3,4',5,6-Hexachlorobiphenyl	-4.666	OCHEM
CCCOC(=O)[C@H](C)O	Propyl (2S)-2-hydroxypropanoate	-0.158	eChemPortal
CC(C)OC(=O)N[C@H](C(=O)N[C@H](C)c1nc2ccc(F)cc2s1)C(C)C	Benthiavalicarb-isopropyl	-5.648	OCHEM
CCN(CCC#N)c1ccc(N=Nc2ccc([N+](=O)[O-])cc2)cc1	C.I. Disperse Orange 25	-6.255	eChemPortal
S=C(SCc1ccccc1)SCc1ccccc1	Carbonotrithioic acid, bis(phenylmethyl) ester	-4.011	eChemPortal
CON=C(C)Cc1c(Cl)cc(Cl)cc1Cl	1-(2,4,6-Trichlorophenyl)-2-propanone O-methyloxime	-3.258	eChemPortal
CC(C)=CC=O	3-Methylbut-2-enal	0.75	eChemPortal
CCCCCCCCC(CCCCCC)C(=O)O (stereo not drawn)	2-Hexyldecanoic acid	-6.211	eChemPortal
CC1(C)CC(=O)CC(C)(C)N1	2,2,6,6-Tetramethyl-4-piperidone	-0.759	eChemPortal
CCOCCOC(=O)OCC	Carbonic acid, 2-ethoxyethyl ethyl ester	-0.377	eChemPortal
CC(C)c1nn(C(=O)NC(C)(C)C)c(=O)n1N	Amicarbazone	-8.01	OCHEM, PubChem, eChemPortal
CC(=O)OC1CCC2CCCCC2C1 (stereo not drawn)	Decahydro-2-naphthyl acetate	-0.682	eChemPortal

Excerpt, the final 4 entries:

SMILES	name	vapor pressure (log10 mmHg)	via
CC1(C)CC(=O)CC(C)(C)N1	2,2,6,6-Tetramethyl-4-piperidone	-0.759	eChemPortal
CCOCCOC(=O)OCC	Carbonic acid, 2-ethoxyethyl ethyl ester	-0.377	eChemPortal
CC(C)c1nn(C(=O)NC(C)(C)C)c(=O)n1N	Amicarbazone	-8.01	OCHEM, PubChem, eChemPortal
CC(=O)OC1CCC2CCCCC2C1 (stereo not drawn)	Decahydro-2-naphthyl acetate	-0.682	eChemPortal

Values as listed in the OPERA 2.9 repository of K. Mansouri.